For one molecule, EC50 and biological half-life results are on record in patent US20230331803A1, “CO-AGONISTS OF THE GLP-1 AND AMYLIN RECEPTORS” (priority 2020, published 2023).

Sequences of proteins named here, by UniProt entry; tags and fusion partners are left off. Residues count along the entry.
UniProt O60896, 24-148: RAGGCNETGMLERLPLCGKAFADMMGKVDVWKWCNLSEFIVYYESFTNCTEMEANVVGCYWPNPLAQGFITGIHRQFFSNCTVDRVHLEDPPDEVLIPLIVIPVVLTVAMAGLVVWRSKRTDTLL
UniProt P30988, 25-474: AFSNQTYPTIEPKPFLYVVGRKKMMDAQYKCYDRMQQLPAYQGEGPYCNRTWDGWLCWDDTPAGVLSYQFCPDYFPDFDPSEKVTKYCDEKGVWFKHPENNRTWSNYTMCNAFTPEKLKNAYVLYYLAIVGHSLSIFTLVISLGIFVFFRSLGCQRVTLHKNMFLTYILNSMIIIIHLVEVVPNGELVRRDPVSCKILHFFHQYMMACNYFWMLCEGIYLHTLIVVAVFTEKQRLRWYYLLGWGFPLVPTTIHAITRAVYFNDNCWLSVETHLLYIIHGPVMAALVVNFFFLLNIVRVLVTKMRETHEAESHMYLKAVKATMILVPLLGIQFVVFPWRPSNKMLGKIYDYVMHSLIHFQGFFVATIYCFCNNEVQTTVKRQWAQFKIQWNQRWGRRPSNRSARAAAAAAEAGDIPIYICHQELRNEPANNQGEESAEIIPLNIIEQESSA

For series [1], the target named is T1, human amylin receptor (hAmyR3) (Homo sapiens, UniProt O60896+P30988).
T1 construct: host or cells: BHK cells (Hollex-1 line: human calcitonin receptor (a) + CRE-Luc), further transfected with human RAMP3
The series is described as follows: Human amylin receptor in vitro potency assay (CRE-luciferase reporter, BHK cells).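 Further: BHK cells expressing human calcitonin receptor plus RAMP3 (amylin-3 receptor) with a CRE-luciferase reporter, agonist activity read as luminescence from cAMP-driven transcription, 7-point serial dilutions.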 Conditions: Table 4b; reference and comparator compounds; read-out: Human AmyR3 potency [EC50 (pM)]. It is filed as cell-based.

The conditions of series [2]: in vivo; cited from earlier work.

For the molecule `CC[C@H](C)[C@H](NC(=O)[C@@H]1CCCN1C(=O)CNC(=O)[C@H](Cc1ccccc1)NC(=O)[C@H](CC(N)=O)NC(=O)[C@H](CC(N)=O)NC(=O)[C@H](CO)NC(=O)[C@H](CO)NC(=O)[C@H](Cc1c[nH]cn1)NC(=O)[C@@H](NC(=O)[C@H](CC(C)C)NC(=O)[C@H](Cc1ccccc1)NC(=O)[C@H](CC(N)=O)NC(=O)[C@H](C)NC(=O)[C@H](CC(C)C)NC(=O)[C@H](CCCNC(=N)N)NC(=O)[C@H](CCC(N)=O)NC(=O)[C@@H](NC(=O)[C@H](C)NC(=O)[C@@H]1CSSC[C@H](NC(=O)[C@@H](N)CCCCN)C(=O)N[C@@H](CC(N)=O)C(=O)N[C@@H]([C@@H](C)O)C(=O)N[C@@H](C)C(=O)N[C@@H]([C@@H](C)O)C(=O)N1)[C@@H](C)O)C(C)C)C(=O)N[C@@H](CC(C)C)C(=O)N1CCC[C@H]1C(=O)N1CCC[C@H]1C(=O)N[C@H](C(=O)N[C@@H](CC(N)=O)C(=O)N[C@H](C(=O)NCC(=O)N[C@@H](CO)C(=O)N[C@@H](CC(N)=O)C(=O)N[C@H](C(=O)N[C@@H](Cc1ccc(O)cc1)C(N)=O)[C@@H](C)O)C(C)C)[C@@H](C)O` [Pramlintide, reference compound], the EC50 (in general, the concentration needed to bring the measured effect to its halfway point) in series [1] amounted to 7.8 pM. Besides, in series [2], the biological half-life entry was “less than 1 hour”.
